Assay: Inhibition of ribosomal activity in Spodoptera frugiperda Sf21 cells assessed as inhibition of translation after 60 mins by fluorescence assay

`CN[C@@H]1[C@@H](O)[C@@H](O[C@@H]2[C@@H](O)[C@H](O[C@H]3O[C@H]([C@@H](C)O)[C@@H](O)[C@H](O)[C@H]3N)[C@@H](N)C[C@H]2N)OC[C@]1(C)O` [GENETICIN] showed an IC50 of 2 µM.

— ChEMBL document CHEMBL1165913, “Repairing faulty genes by aminoglycosides: development of new derivatives of geneticin (G418) with enhanced suppression of diseases-causing nonsense mutations” (Bioorg Med Chem, 2010)
